Experimental data reported in publication PMC4769701, “Discovery and characterization of a high-affinity and high-specificity peptide ligand LXY30 for in vivo targeting of α3 integrin-expressing human tumors” (EJNMMI Research, 2016).

Sequences of proteins named here, by UniProt entry; tags and fusion partners are left off. Residues count along the entry.
UniProt P26006, 33-872 limits assumed: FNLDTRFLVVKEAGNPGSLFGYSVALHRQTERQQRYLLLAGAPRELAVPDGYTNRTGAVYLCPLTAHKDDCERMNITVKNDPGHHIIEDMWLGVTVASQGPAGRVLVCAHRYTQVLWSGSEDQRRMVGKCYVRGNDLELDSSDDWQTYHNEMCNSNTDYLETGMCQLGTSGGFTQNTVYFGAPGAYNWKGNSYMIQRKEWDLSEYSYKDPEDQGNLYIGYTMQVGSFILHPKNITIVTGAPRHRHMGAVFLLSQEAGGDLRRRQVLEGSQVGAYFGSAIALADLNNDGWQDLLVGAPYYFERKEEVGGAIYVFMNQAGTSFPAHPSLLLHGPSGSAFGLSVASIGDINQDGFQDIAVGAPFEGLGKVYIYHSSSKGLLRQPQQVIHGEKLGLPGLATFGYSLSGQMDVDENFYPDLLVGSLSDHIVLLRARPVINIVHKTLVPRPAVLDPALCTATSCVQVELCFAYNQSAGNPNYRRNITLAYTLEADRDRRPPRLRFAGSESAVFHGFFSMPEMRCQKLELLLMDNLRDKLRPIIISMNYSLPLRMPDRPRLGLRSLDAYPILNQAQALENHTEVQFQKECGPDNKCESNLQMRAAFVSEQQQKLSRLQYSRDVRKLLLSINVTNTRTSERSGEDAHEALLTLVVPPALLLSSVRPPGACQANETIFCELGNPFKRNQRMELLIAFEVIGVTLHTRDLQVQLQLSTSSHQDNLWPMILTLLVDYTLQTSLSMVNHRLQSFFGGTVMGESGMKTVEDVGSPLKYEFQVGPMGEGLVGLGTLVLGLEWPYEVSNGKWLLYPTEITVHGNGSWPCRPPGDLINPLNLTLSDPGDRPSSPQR
UniProt P26006, 873-1051 partner limits assumed: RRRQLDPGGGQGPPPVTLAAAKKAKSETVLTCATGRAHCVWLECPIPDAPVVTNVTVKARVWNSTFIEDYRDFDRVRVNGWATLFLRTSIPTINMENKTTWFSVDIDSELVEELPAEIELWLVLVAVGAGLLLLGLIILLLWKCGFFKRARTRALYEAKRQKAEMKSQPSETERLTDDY

Molecular target: T1, α3β1 integrin-expressing U-87MG glioblastoma cells (Homo sapiens, UniProt P26006)
T1 construct: we incubated U-87MG cells which express α3β1 integrin; endogenous in cells; host or cells: U-87MG human glioblastoma cells
Assay: biochemical
Conditions: series of concentrations competing with 0.5 μM LXY1-biotin binding to U-87MG cells
Protocol: Confluent tumor cells (80-90 %) were dissociated with 0.05 % trypsin-EDTA and neutralized with culture medium. To determine the expression of α3 and β1 integrins, 1 μg of anti-α3 or anti-β1 antibody was mixed with 1 million cells for 30 min, followed by anti-mouse IgG-PE incubation and flow cytometry (Coulter XL-MCL). […] Then each sample was washed three times with 1 mL PBS containing 1 % FBS. Samples thereafter were incubated with a 1:500 dilution of streptavidin-PE (1 mg/mL) for 30 min on ice followed by a single wash with 1 mL of PBS containing 1 % FBS. Finally, the samples in PBS were analyzed by flow cytometry. […] The mixture was then incubated with cancer cells followed by streptavidin-PE. Samples were analyzed by flow cytometry, and mean fluorescence intensity (MFI) was decided for each individual sample. […] For blocking experiments, the samples were incubated with non-biotinylated LXY30, anti-α3, or anti-β1 antibody for 30 min prior to incubation with 20 nM biotinylated LXY30. […] [table]

For CC(C)C[C@@H]1NC(=O)CNC(=O)[C@@H](CC(=O)O)NC(=O)[C@H](N)CSSC[C@H](C(N)=O)NC(=O)[C@H](CC(N)=O)NC(=O)[C@@H]2C[C@@H](O)CN2C(=O)CNC1=O [LXY1, cdGLG-Hyp-Nc], the IC50 was 3.5 ± 0.4 µM.
